# From PubChem BioAssay
# Hits are enriched below; roughly 1.8% of the tested compounds scored in any of these assays.
# E-sel inducer: induces E-selectin expression in human endothelial cells | P16581 | HUVEC E-selectin immunofluorescence imaging; normalized: neutral wells 0, TNF-alpha wells 100 | activation, % at 7.58 µM | hit rate 0.37% among 260,000;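 active = mean E-selectin-positive cell signal at least 10% of the positive control, reached in at least 60% of replicates, without over 20% cell loss; inconclusive = no rule given, readout overlaps actives, possibly toxicity-flagged; inactive = the rest, including those meeting only one limit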
#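 Test system: HUVEC; input: 3,000 HUVEC/well; measured by: immunofluorescence imaging; read-out: % PE-positive cells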
# DENV2 CPE rescue: DENV2-induced cell death inhibition; DENV2-infected cells, cytopathic effect rescue, plate reader; AID 651640; hit rate 1.7% among 350,000; CPE inhibition, % at 9.99 µM; in the data active = CPE inhibition above about 20%, passing the limit was not always enough; inconclusive = no clear call, values can overlap the other calls; tested in BHK-21 cells
# Cneo AK release: causes C. neoformans cell lysis; hit rate 0.2% among 360,000; adenylate kinase release luminescence, 4 h; normalised: neutral wells 0, clomiphene wells 100; lysis activity, % at 15 µM;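 active = mean lysis activity across replicates of at least 80%, whatever share of replicates individually reach that level; inactive = mean lysis activity below 80%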
#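 Test system: log-phase Cryptococcus neoformans yeast cells. Input: 5 × 10^6 yeast cells/mL. Medium: fresh YPD growth medium. Doses: single dose. Incubation: static 4 h at 37 °C with compound, 1 h detection. Measured by: luminescent adenylate kinase detection reagent. Read-out: signal increase indicating cell lysis. Benchmarks: Clomiphene.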
# Yeast UUG start: alters start codon recognition fidelity in yeast; AID 602363; activity score, % at 18.7 µM; 350,000 tested, 0.13% active; S. cerevisiae UUG-firefly luciferase reporter, luminescence/redox ratio;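 active means replicate mean at a twofold rise or more, about +100% in these data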;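 further: firefly luciferase made from a UUG start codon reports start codon fidelity; reporter light over untreated wells divided by growth signal over untreated wells; some hits fall short of that in this replicate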
# Numbers stand for hits; n = inactive; u = inconclusive; x = not tested or not shown.
SMILES,E-sel inducer,DENV2 CPE rescue,Cneo AK release,Yeast UUG start
COc1ccc(NC(=O)N(C)C[C@@H]2Oc3c(NS(=O)(=O)c4cn(C)cn4)cccc3C(=O)N([C@@H](C)CO)C[C@H]2C)cc1,28,n,n,n
O=C(NC1CCC1)[C@H]1[C@H](CO)[C@H]2Cn3c(ccc(-c4ccc(F)cc4)c3=O)[C@@H]1N2Cc1cocn1,n,n,x,x
COC(=O)C1=C(C)NC(=O)/C1=C\N(C)C,39,n,x,x
Cc1noc(C)c1NC(=O)N(C)C[C@H]1OCCCC[C@@H](C)Oc2ccc(NS(=O)(=O)c3cccs3)cc2C(=O)N([C@@H](C)CO)C[C@H]1C,n,n,n,n
C[C@@H]1CN([C@@H](C)CO)C(=O)c2cccc(NC(=O)Nc3ccc(F)cc3)c2O[C@H]1CN(C)C(=O)NC1CCCCC1,n,n,n,n
Cc1nnc(NC(=O)CCn2c(=O)oc3ccc(Cl)cc32)s1,n,23,n,n
C[C@@H]1CCCCO[C@@H](CN(C)C(=O)Nc2ccc(C(F)(F)F)cc2)[C@H](C)CN([C@@H](C)CO)C(=O)c2cc(NS(=O)(=O)c3ccccc3)ccc2O1,n,54,n,n
C[C@H](CO)N1C[C@H](C)[C@H](CN(C)C(=O)Nc2ccc(C(F)(F)F)cc2)OCCCC[C@H](C)Oc2ccc(NS(C)(=O)=O)cc2C1=O,n,u,n,n
C[C@@H]1CCCCO[C@H](CN(C)C(=O)Nc2ccc(C(F)(F)F)cc2)[C@H](C)CN([C@@H](C)CO)C(=O)c2cc(NS(=O)(=O)c3ccccc3)ccc2O1,n,40,n,n
C[C@@H]1CN([C@@H](C)CO)C(=O)c2cc(NS(C)(=O)=O)ccc2O[C@@H](C)CCCCO[C@@H]1CN(C)C(=O)Nc1ccc(C(F)(F)F)cc1,n,46,x,x
C[C@@H]1CCCCO[C@H](CN(C)C(=O)Nc2ccc(C(F)(F)F)cc2)[C@@H](C)CN([C@H](C)CO)C(=O)c2cc(NS(=O)(=O)c3ccccc3)ccc2O1,n,37,n,n
COc1ccc(CN(C)C[C@H]2OCCCC[C@H](C)Oc3ccc(NS(=O)(=O)c4ccc(C)cc4)cc3C(=O)N([C@H](C)CO)C[C@H]2C)cc1,n,n,n,n
C[C@@H]1CCCCO[C@H](CN(C)C(=O)Nc2ccc(C(F)(F)F)cc2)[C@@H](C)CN([C@@H](C)CO)C(=O)c2cc(NS(=O)(=O)c3ccccc3)ccc2O1,n,n,n,n
C[C@H](CO)N1C[C@H](C)[C@H](CN(C)C(=O)Nc2ccc(C(F)(F)F)cc2)OCCCC[C@H](C)Oc2ccc(NS(=O)(=O)c3ccccc3)cc2C1=O,n,41,n,n
C[C@@H]1CN([C@@H](C)CO)C(=O)c2ccccc2-c2ccccc2CO[C@@H]1CN(C)S(=O)(=O)c1ccccc1,n,n,n,n
CC(=O)N1[C@H](CO)[C@@H](c2ccc(C3=CCCCC3)cc2)[C@@H]1CNC(=O)CN(C)C,n,22,n,n
CCCNC(=O)NC[C@@H]1[C@@H](c2ccc(C3=CCCC3)cc2)[C@@H](CO)N1C(=O)CC,n,116,n,n
CCC(=O)N1[C@H](CN(C)C(C)=O)[C@H](c2ccc(C3=CCCCC3)cc2)[C@@H]1CO,n,n,x,x
CCC(=O)N1[C@H](CO)[C@@H](c2ccc(-c3cccnc3)cc2)[C@@H]1CN(C)C(C)=O,n,n,104,n
CCC(=O)N1[C@H](CN(C)C(C)=O)[C@@H](c2ccc(C3=CCCCC3)cc2)[C@@H]1CO,n,n,111,n
CC(=O)N(C)C[C@H]1[C@H](c2ccc(-c3cccnc3)cc2)[C@@H](CO)N1C(=O)C1CC1,n,n,n,n
C[C@@H]1CCCCO[C@H](CN(C)C(=O)C2CCCCC2)[C@H](C)CN([C@@H](C)CO)C(=O)c2cc(NS(=O)(=O)c3ccc(F)cc3)ccc2O1,n,n,n,n
CCNC(=O)C[C@H]1CC[C@@H]2[C@@H](COc3ccc(NC(=O)Nc4ccccc4OC)cc3C(=O)N2C)O1,n,n,n,n
CCOC1=C2CN(S(=O)(=O)c3ccc(C)cc3)C(c3cccc(Cl)c3)CC2N(S(=O)(=O)c2ccc(Cl)cc2)C(c2ccccc2)C1 (centres undefined),n,32,x,x
CCc1ccc(NC(=O)COc2ccc3c(c2)OCO3)cc1,n,47,n,n
COc1ccc(NC(=O)COc2ccc3c(c2)OCO3)cc1,n,n,n,n
C[C@H](CO)N1C[C@H](C)[C@@H](CN(C)S(=O)(=O)c2cn(C)cn2)Oc2ccc(NC(=O)Nc3ccc(F)cc3)cc2CC1=O,61,x,x,x
